Some compounds may have been tested in ways that are not shown here.

The test relates to contracted strips of the rats' arota. Kind of test: relaxing potency in vitro on phenylefrine-contracted strips of rat aorta. As to conditions: read-out: EC50 (concentration with which relaxation took place up to 50% of the contraction induced by 10^-7 M phenylefrine); rat thoracal aorta strips, contracted with 10^-7 M phenylefrine, cumulative concentrations, 37° C. The method, then: The relaxing potency of the compounds as described is tested in vitro on contracted strips of the rats' arota. Male Wistar rates (200-220 g) are killed by decapitation. The thoracal aorta is removed and is helically cut into strips (length: ±10 mm, width: ±2 mm; 4 strips per rat).
The strips are suspended in organ baths filled with 20 ml of Krebs' medium with a constant temperature of 37° C. passing through O2 /CO2 (95/5) and subsequently for 2 h equilibrated under an isotonic load of 500 mg. The medium is renewed every 20 minutes.
After equilibration contraction takes place by addition of 10^-7M phenylefrine to the medium. After reaching the maximal contraction the composition with the organic nitrate ester to be tested in cumulative concentration steps is relaxed.
The degree of relaxation is expressed as a percentage of the maximal contraction (=100%) reached with 10^-7 M phenylefrine. The relaxing potency of the tested compounds is expressed as the EC50 : the concentration with which relaxation took place up to 50% of the contraction induced by 10^-7 M phenylefrine. From a number of compounds the EC50 -values have been stated in Table 1. For comparison the EC50 -values of glyceryltrinitrate and isosorbidedinitrate have also been included.

As for `O=[N+]([O-])OCCCCCCO[N+](=O)[O-]`, the EC50 was found to be 19 nM.
